Test results as given in patent US12274706B2 (MEDAC GESELLSCHAFT FUER KLINISCHE SPEZIALPRAEPARATE MBH, priority 2017, dated 2025).
Where two headings read alike, the source gives them in different places.

How the values were obtained:
[1] = system: Caco-2 cell monolayers; settings: 180 min
[2] = system: Caco-2 cell monolayers; settings: literature; cited from earlier work

With `O=C(O)c1cc(N=Nc2ccc(S(=O)(=O)Nc3ccccn3)cc2)ccc1O` [sulfasalazine, 2-hydroxy-5-[2-[4-[(2-pyridinylamino)sulfonyl]phenyl]diazenyl]-benzoic acid] the Cumulative drug transport ([1]; 200 μg/mL, direction ab) was 3.81 μg/cm^2, the Cumulative drug transport ([1]; 200 μg/mL, direction ba) was 14.81 μg/cm^2 and the Cumulative drug transport ([1]; 2000 μg/mL, direction ab) was 9.86 μg/cm^2. The Cumulative drug transport ([1]; 2000 μg/mL, direction ba) was 32.07 μg/cm^2 and the “permeability through Caco-2 cell monolayers” value [2] was “low permeability”.
